Experimental data reported in ChEMBL document CHEMBL1134790, “Design, synthesis, and evaluation of novel A2A adenosine receptor agonists” (J Med Chem, 2001).

Amino acid sequences for entries named in this document (tags omitted).
UniProt P25099, whole entry: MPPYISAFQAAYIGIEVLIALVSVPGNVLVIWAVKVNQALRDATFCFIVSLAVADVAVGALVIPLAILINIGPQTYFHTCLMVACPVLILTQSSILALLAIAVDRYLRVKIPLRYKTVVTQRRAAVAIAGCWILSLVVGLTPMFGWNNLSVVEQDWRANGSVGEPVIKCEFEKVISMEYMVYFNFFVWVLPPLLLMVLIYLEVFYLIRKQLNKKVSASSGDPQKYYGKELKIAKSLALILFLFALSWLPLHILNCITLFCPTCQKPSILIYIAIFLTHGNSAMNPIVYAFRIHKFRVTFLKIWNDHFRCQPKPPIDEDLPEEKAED

Target: Adenosine receptor A1 (Rattus norvegicus, UniProt P25099)
Assay: biochemical

With `CCNC(=O)[C@H]1O[C@@H](n2cnc3c(N)nc(NCCc4ccc(CCC(=O)O)cc4)nc32)[C@H](O)[C@@H]1O` [CGS-21680] the Ki was 1800 nM.
